Source: ChEMBL document CHEMBL1154694, “Discovery of a 2,4-diamino-7-aminoalkoxyquinazoline as a potent and selective inhibitor of histone lysine methyltransferase G9a” (J Med Chem, 2009)

Tests used:
[1] = target: T1, Histone-lysine N-methyltransferase EHMT1 (Homo sapiens, UniProt Q9H9B1); assay: Inhibition of GLP
T1 sequence (Q9H9B1 whole entry): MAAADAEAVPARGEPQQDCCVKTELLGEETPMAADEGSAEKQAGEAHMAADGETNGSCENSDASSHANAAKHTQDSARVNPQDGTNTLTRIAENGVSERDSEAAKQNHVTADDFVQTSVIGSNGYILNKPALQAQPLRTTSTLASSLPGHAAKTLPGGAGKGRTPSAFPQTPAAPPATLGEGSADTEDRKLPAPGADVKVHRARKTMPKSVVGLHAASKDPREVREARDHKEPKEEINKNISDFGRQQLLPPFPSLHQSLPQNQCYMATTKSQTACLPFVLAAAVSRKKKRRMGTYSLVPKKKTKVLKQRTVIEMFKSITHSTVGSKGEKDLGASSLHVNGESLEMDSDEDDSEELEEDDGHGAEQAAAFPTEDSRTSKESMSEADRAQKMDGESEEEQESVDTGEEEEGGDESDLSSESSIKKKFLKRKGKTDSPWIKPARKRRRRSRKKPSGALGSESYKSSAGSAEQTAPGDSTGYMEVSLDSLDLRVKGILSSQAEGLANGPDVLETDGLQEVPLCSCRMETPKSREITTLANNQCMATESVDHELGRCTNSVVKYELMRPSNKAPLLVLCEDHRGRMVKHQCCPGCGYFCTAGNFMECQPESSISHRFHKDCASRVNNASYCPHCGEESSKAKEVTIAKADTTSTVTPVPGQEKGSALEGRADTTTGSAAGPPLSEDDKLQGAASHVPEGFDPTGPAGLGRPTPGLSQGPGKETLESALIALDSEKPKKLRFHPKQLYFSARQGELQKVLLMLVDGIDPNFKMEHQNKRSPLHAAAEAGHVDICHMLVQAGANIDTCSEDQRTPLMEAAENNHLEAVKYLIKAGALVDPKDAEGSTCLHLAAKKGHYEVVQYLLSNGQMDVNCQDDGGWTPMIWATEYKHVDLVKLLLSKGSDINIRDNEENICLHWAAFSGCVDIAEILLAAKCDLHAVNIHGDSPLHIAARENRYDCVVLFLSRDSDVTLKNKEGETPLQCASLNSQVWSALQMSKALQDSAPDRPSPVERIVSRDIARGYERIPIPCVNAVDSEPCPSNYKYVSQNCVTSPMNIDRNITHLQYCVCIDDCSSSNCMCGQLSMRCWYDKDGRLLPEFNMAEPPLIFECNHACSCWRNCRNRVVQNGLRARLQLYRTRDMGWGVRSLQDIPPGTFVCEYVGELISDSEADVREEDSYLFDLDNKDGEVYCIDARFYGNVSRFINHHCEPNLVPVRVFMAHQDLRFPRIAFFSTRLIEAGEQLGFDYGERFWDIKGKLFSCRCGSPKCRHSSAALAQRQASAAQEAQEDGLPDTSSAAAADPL

[2] = target: T2, Histone-lysine N-methyltransferase EHMT2 (Homo sapiens, UniProt Q96KQ7); assay: Binding affinity to G9a by isothermal titration calorimetry
T2 sequence (Q96KQ7 whole entry): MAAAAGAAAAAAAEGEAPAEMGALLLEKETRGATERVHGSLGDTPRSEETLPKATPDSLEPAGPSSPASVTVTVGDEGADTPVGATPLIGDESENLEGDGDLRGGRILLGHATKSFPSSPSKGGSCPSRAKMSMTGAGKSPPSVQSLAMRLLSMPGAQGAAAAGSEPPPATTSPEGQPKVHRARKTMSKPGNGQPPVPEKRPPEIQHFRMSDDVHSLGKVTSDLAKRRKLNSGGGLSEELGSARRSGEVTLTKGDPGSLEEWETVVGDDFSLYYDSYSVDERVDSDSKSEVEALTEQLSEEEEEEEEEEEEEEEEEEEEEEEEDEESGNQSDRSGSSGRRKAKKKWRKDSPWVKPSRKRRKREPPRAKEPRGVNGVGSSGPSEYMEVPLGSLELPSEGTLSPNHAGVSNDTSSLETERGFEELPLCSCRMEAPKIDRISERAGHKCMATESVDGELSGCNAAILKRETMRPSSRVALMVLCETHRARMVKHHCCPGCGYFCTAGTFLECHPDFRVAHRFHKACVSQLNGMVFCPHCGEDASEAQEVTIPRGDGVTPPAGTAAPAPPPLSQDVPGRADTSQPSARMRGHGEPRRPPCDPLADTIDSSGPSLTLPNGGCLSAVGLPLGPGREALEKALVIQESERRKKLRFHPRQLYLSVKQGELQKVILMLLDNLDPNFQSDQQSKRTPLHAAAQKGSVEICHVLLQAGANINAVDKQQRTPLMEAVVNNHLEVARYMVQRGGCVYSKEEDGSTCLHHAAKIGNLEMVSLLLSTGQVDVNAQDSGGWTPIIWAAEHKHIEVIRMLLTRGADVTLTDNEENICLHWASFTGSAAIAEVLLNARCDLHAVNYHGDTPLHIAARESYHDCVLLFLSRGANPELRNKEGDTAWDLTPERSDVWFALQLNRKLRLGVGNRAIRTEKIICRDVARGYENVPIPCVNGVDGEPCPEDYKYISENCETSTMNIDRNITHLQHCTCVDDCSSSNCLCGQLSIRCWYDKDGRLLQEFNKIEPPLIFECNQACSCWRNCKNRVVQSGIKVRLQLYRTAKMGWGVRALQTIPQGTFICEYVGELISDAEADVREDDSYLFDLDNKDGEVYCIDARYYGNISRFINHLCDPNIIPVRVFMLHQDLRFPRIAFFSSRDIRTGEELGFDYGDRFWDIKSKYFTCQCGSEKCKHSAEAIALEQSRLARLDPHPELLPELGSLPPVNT

Row | Kd [2] [nM] | Compound | IC50 [1] [nM]
1 |  | COc1cc2nc(N3CCCN(C)CC3)nc(NC3CCN(Cc4ccccc4)CC3)c2cc1OC | 700
2 | 23 | COc1cc2c(NC3CCN(C)CC3)nc(N3CCCN(C)CC3)nc2cc1OCCCN(C)C | 
